Values quoted from earlier work in patent US9428458B2, “Substituted pyridoxine-lactam carboxylate-salts” (ALCOBRA LTD., priority 2008, dated 2016).

Amino acid sequences for entries named in this document (tags omitted).
UniProt P05181, whole entry, species assumed: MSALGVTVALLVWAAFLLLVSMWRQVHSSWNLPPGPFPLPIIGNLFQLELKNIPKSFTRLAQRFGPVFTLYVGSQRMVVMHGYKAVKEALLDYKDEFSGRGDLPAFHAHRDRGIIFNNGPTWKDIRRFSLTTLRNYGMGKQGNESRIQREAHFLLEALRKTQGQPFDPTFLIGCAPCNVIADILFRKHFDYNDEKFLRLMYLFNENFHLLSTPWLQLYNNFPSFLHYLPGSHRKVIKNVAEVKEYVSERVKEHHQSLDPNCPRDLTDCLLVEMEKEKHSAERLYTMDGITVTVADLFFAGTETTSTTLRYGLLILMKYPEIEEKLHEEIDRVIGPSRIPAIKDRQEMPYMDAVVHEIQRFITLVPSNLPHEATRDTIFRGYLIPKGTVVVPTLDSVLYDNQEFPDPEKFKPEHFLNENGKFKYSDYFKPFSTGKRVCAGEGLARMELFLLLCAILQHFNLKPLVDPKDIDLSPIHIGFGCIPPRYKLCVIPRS

Target: cytochrome P450 2E1 (Homo sapiens, UniProt P05181)

With “pyridoxine L-2-pyrrolidone-5-carboxylate [metadoxine]” as the substance, how does the “inhibition of expression and activation of alcohol-induced cytochrome P450 2E1” value read?
The value was “does not inhibit”.
